Results on 1 molecule are retold here after patent publication US6387389B1 (priority 1996, dated 2002).

Usually Kd stands for the constant that tells how readily two partners part at equilibrium. Lower therefore signals a tighter complex.

The assay addresses dopamine transporter (DT) / serotonin transporter (ST). Nature of the assay: [125I]RTI 55 radioligand binding. Particulars: transporter not specified.

`COC(=O)C1C2CCC(CC1c1ccc(I)cc1)N2` (single isomer, unassigned; (-)) [[^125I]RTI 55, (−)2β-carbomethoxy-3-β-(4-iodophenyl)nortropane] came in with a Kd of 0.91 ± 0.04 nM.
